The values below come from patent US7015329B2 (Janssen Pharmaceutica N. V., priority 2003, dated 2006).

Protein sequences, listed by entry. Tags and fused reporters are not part of them. Residues count along the entry.
UniProt P37231, 238-503 limits assumed, species assumed: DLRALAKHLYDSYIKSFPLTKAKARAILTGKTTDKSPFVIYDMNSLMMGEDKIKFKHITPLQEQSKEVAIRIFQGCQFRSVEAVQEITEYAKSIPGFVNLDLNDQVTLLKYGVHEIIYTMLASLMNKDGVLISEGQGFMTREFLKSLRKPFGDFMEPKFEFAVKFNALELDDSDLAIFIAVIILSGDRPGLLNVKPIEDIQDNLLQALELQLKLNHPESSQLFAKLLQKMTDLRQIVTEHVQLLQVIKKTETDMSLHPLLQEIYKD

Bounds are passed on as bounds.

Test [1] concerns the target T1, PPAR delta (Homo sapiens, UniProt Q03181).
T1 construct: expressed in transfected cells; host or cells: HEK293
T1 sequence (Q03181 211-439 limits assumed): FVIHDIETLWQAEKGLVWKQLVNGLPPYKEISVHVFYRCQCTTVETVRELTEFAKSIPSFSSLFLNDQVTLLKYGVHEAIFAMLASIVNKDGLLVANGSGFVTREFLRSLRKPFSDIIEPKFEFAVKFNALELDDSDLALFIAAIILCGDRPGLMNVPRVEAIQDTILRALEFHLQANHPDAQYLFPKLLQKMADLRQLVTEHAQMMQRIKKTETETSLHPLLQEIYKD
Description: Transfection assay for PPAR receptors (GAL4-LBD luciferase reporter), PPAR delta. The class given is cell-based. The following applies: Table 2, compounds of interest, HEK293 cells, 18–24 hrs.

Test [2] deals with T2, PPAR gamma (Homo sapiens, UniProt P37231).
T2 construct: expressed in transfected cells; host or cells: HEK293
Description: Transfection assay for PPAR receptors (GAL4-LBD luciferase reporter), PPAR gamma. It counts as cell-based. The note with it: Table 2, compounds of interest, HEK293 cells, 18–24 hrs.

In the case of “{2-Methyl-4-[5-(4-trifluoromethyl-phenyl)-pyridin-3-ylmethylsulfanyl]-phenoxy}-acetic acid [Compound e]”, the EC50 is 37 nM in test [1] and greater than 3000 nM in test [2].
